From US8188108B2, “Pharmaceutical composition” (priority 2002, dated 2012) come the findings set out here.

The conditions of the data set: in vivo.

Take `CN1CC[C@]23c4c5ccc(O)c4O[C@H]2C(=O)CC[C@H]3[C@H]1C5` [Hydromorphone, hydromorphone]: the “effect of docusate on the pharmacokinetics” value was “no significant effect”.
